Experimental data published in article PMC12102759 (Protein Science : A Publication of the Protein Society, 2025).

The substances below were run on YES SH3. Settings: not given.
Type: binding, human

Row | Substance | PSSM value of the single amino acid variant (DMS by phage display)
1 | TSSIQSRPLPSPPKFT S11I (TSSIQSRPLPIPPKFT) | 0.01708
2 | TSSIQSRPLPSPPKFT S11K (TSSIQSRPLPKPPKFT) | 0.1065
3 | TSSIQSRPLPSPPKFT S11L (TSSIQSRPLPLPPKFT) | 0.00275
4 | TSSIQSRPLPSPPKFT S11M (TSSIQSRPLPMPPKFT) | 0.008974
5 | TSSIQSRPLPSPPKFT S11N (TSSIQSRPLPNPPKFT) | 0.03033
6 | TSSIQSRPLPSPPKFT S11P (TSSIQSRPLPPPPKFT) | 0.02315
7 | TSSIQSRPLPSPPKFT S11Q (TSSIQSRPLPQPPKFT) | 0.003114
8 | TSSIQSRPLPSPPKFT S11R (TSSIQSRPLPRPPKFT) | 0.003596
9 | TSSIQSRPLPSPPKFT S11S | 0.02544
10 | TSSIQSRPLPSPPKFT S11T (TSSIQSRPLPTPPKFT) | 0.0519
11 | TSSIQSRPLPSPPKFT S11V (TSSIQSRPLPVPPKFT) | 0.07552
12 | TSSIQSRPLPSPPKFT S11W (TSSIQSRPLPWPPKFT) | 0.003236
13 | TSSIQSRPLPSPPKFT S11Y (TSSIQSRPLPYPPKFT) | 0.004211
14 | TSSIQSRPLPSPPKFT T1A (ASSIQSRPLPSPPKFT) | 0.238
15 | TSSIQSRPLPSPPKFT T1D (DSSIQSRPLPSPPKFT) | 0.01283
16 | TSSIQSRPLPSPPKFT T1E (ESSIQSRPLPSPPKFT) | 0.02999

Row | Substance | PSSM value of the single amino acid variant (DMS by phage display)
17 | TSSIQSRPLPSPPKFT T1F (FSSIQSRPLPSPPKFT) | 0
18 | TSSIQSRPLPSPPKFT T1G (GSSIQSRPLPSPPKFT) | 0
19 | TSSIQSRPLPSPPKFT T1H (HSSIQSRPLPSPPKFT) | 0.06859
20 | TSSIQSRPLPSPPKFT T1I (ISSIQSRPLPSPPKFT) | 0.006316
21 | TSSIQSRPLPSPPKFT T1K (KSSIQSRPLPSPPKFT) | 0
22 | TSSIQSRPLPSPPKFT T1L (LSSIQSRPLPSPPKFT) | 0.007808
23 | TSSIQSRPLPSPPKFT T1M (MSSIQSRPLPSPPKFT) | 0.03829
24 | TSSIQSRPLPSPPKFT T1N (NSSIQSRPLPSPPKFT) | 0.01294
25 | TSSIQSRPLPSPPKFT T1P (PSSIQSRPLPSPPKFT) | 0
26 | TSSIQSRPLPSPPKFT T1Q (QSSIQSRPLPSPPKFT) | 0.03696
27 | TSSIQSRPLPSPPKFT T1R (RSSIQSRPLPSPPKFT) | 0.01076
28 | TSSIQSRPLPSPPKFT T1S (SSSIQSRPLPSPPKFT) | 0.0362
29 | TSSIQSRPLPSPPKFT T1T | 0.1043
30 | TSSIQSRPLPSPPKFT T1V (VSSIQSRPLPSPPKFT) | 0.2962
31 | TSSIQSRPLPSPPKFT T1W (WSSIQSRPLPSPPKFT) | 0.04128
32 | TSSIQSRPLPSPPKFT T1Y (YSSIQSRPLPSPPKFT) | 0.05954

The substances below were run on G3BP1 NFT2. Settings: DMS-CoV phage selection against G3BP1, log2 of summed NGS counts.
Type: binding, human

Row | Substance | NGS_counts log2_total
33 | Ac-AERITFGGPSDSTGSY-NH2 [N P13E] | 9.56
34 | Ac-APLITFGGPSDSTGSY-NH2 [N R14L] | 13.86
35 | Ac-APRIEFGGPSDSTGSY-NH2 [N T15E] | 7.81
36 | Ac-APRITFGAPSDSTGSY-NH2 [N G19A] | 11.54
37 | Ac-APRITFGGFSDSTGSY-NH2 [N P20F] | 6.48
38 | Ac-APRITFGGPSDSTGSY-NH2 [N wt] | 7.72
39 | Ac-APRITFGGPYDSTGSY-NH2 [N S21Y] | 9.51
40 | Ac-DPRITFGGPSDSTGSY-NH2 [N A12D] | 9.73
